NALP1 yeast inh = NALP1 inhibition | inhibition, % at 10 µM | 0.61% of 280,000 active | AID 2071 | S. cerevisiae NALP1/ASC/caspase-1 growth, X-gal OD620, 72 h; in the data active = inhibition mostly above about 24%, no sharp cut-off; inactive = mostly below about 32%
MC4R barr agon = human MC4R agonism via beta-arrestin; 0.98% of 360,000 active; activation, % at 8.9 µM; AID 540308; P32245; U2OS MC4R beta-arrestin complementation, luminescence; percent of melanotan II response, DMSO zero;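 active = activation above a per-plate cutoff, the mean activation of sample wells on that plate plus 3 SD, cut at about 8% in these data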
Yeast UUG start = modulators of start codon recognition fidelity in yeast; S. cerevisiae UUG-firefly luciferase reporter, luminescence/redox ratio; AID 602363; 350,000 tested, 0.13% active; activity score, % at 18.7 µM;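 active = replicate mean at a twofold rise or more, about +100% in these data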;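 also: firefly luciferase made from a UUG start codon reports start codon fidelity; reporter light over untreated wells divided by growth signal over untreated wells; some hits fall short of that in this replicate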
MC4R antag cAMP = human MC4R antagonism in cAMP assay | MC4R-expressing cells, MTII-stimulated cAMP, LANCE TR-FRET | P32245 | 0.48% of 360,000 active | inhibition, % at 6.5 µM | AID 540295;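 active = inhibition above its plate's cutoff, the mean of tested wells on that plate plus 3 SD, cut at about 29% in these data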;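 also: 0% = Melanotan II alone and 100% = Melanotan II plus saturating MCL0020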
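Material: human MC4R-expressing U2OS cells. Probe or stimulus: Melanotan II challenge. Dosing: 6.5 µM single dose. Times: 30-min compound, 1-h challenge, 1-h detection, room temperature. Technique: TR-FRET with Eu-cAMP and labeled anti-cAMP, 671 nm. Replication: singlicate.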
ALR H2O2 inh = human ALR oxidase inhibition via reduced H2O2; P55789; purified ALR, DTT oxidation, H2O2 HRP-luminol luminescence; inhibition, % (concentration not given with the values); 3.8% of 290,000 active; AID 485317;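 active = mean and each replicate at 75% or more; inconclusive = only one of the two met; inactive = neither met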;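 note: stock transfer was 7.5 nL into about 7.5 µL; 0% = neutral wells and 100% = wells with inactivated enzyme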
HDAC3 inh = human HDAC3 inhibition | 0.15% of 320,000 active | AID 2718 | O15379 | recombinant HDAC3, fluorogenic peptide/trypsin coupled, fluorescence | inhibition, % at 8.3 µM; in the data active = inhibition above about 26%, passing the limit was not always enough
Starred values were filed as active, the others as inactive; x = no result given. Sampled rows, rich in hits. Any-hit rate of the full collection: about 4.2%.

The first 5 records (preview)
Every second line gives: NALP1 yeast inh | MC4R barr agon | Yeast UUG start | MC4R antag cAMP | ALR H2O2 inh | HDAC3 inh
(1) COc1ccc(C(=O)n2c(-c3ccco3)nc3ccccc32)cc1
 : 19.6 | -3.1 | -16.3 | -19.2 | -15.2 | 43.5*
(2) O=C(CCN1CCOCC1)c1ccc(Br)cc1
 : -1.8 | -0.7 | -3.3 | 8.6 | 97.7* | -5.4
(3) O=C(CCN1CCOCC1)c1ccc(Cl)cc1
 : -13.3 | 1.3 | x | 6.4 | 96.3* | -4.3
(4) CC(C)NC(=O)c1nn2c(C(F)(F)F)cc(-c3ccco3)nc2c1Cl
 : -15.0 | -0.2 | -12.0 | 7.0 | 85.9* | -2.2
(5) O=C(NC1CCCC1)c1cc2nc(-c3ccco3)cc(C(F)(F)F)n2n1
 : 15.6 | -1.6 | -11.5 | 3.3 | 88.5* | 6.0

This part in full, from the first entry:
Every second line gives: NALP1 yeast inh | MC4R barr agon | Yeast UUG start | MC4R antag cAMP | ALR H2O2 inh | HDAC3 inh
(1) COc1ccc(C(=O)n2c(-c3ccco3)nc3ccccc32)cc1
 : 19.6 | -3.1 | -16.3 | -19.2 | -15.2 | 43.5*
(2) O=C(CCN1CCOCC1)c1ccc(Br)cc1
 : -1.8 | -0.7 | -3.3 | 8.6 | 97.7* | -5.4
(3) O=C(CCN1CCOCC1)c1ccc(Cl)cc1
 : -13.3 | 1.3 | x | 6.4 | 96.3* | -4.3
(4) CC(C)NC(=O)c1nn2c(C(F)(F)F)cc(-c3ccco3)nc2c1Cl
 : -15.0 | -0.2 | -12.0 | 7.0 | 85.9* | -2.2
(5) O=C(NC1CCCC1)c1cc2nc(-c3ccco3)cc(C(F)(F)F)n2n1
 : 15.6 | -1.6 | -11.5 | 3.3 | 88.5* | 6.0
(6) COc1ccc(C(C)NC(=S)NCc2ccc(F)cc2)cc1 (stereo not given)
 : 16.3 | 1.0 | -12.4 | 1.9 | -8.9 | -1.4
(7) Cc1ccc(C)c(C(C)NC(=S)NCc2ccc(F)cc2)c1 (stereo not given)
 : 31.1 | 8.2* | -25.6 | -3.8 | -0.8 | -0.7
(8) Cc1nnc(SCc2cc(=O)[nH]c(/N=C(\N)Nc3ccccc3)n2)s1
 : 18.6 | -2.5 | -0.6 | -12.7 | -3.5 | 2.1
(9) CCOc1ccc(N/C(N)=N/c2nc(CSc3nnc(C)s3)cc(=O)[nH]2)cc1
 : 38.6* | -0.3 | x | -24.5 | x | x
(10) O=C(CCC1CCCC1)c1c(O)c2ccccc2oc1=O
 : 40.0* | 2.3 | -9.5 | 5.5 | 93.2* | x
(11) O=C(c1c(O)c2ccccc2oc1=O)C1CCCCC1
 : 3.4 | -1.6 | -3.8 | 13.9 | 63.6 | 1.4
(12) CCNC(=O)C[C@@H]1CC[C@H]2[C@H](COc3ccc(NC(=O)c4ccccc4Cl)cc3C(=O)N2C)O1
 : x | x | 4.0 | x | x | x
(13) CC(=O)N1CC[C@@H]2[C@H]1c1cc(-c3cccc(F)c3)ccc1N(C)[C@@H]2CO
 : x | x | 2.3 | x | x | x
(14) COc1ccc(S(=O)(=O)Nc2ccc3c(c2)C(=O)N([C@@H](C)CO)C[C@@H](C)[C@@H](CN(C)C(=O)Nc2cccc4ccccc24)O3)cc1
 : x | x | 0.1 | x | x | x
(15) COC(=O)c1[nH]c(=O)c2ccccc2c1O
 : 7.3 | -1.6 | -4.6 | -4.3 | 98.1* | -4.0
(16) COC(=O)c1[nH]c(=O)c2ccccc2c1OCc1ccccc1
 : -19.1 | -2.1 | -7.7 | -1.5 | x | 8.4
(17) Cc1ccc(-n2c(-c3ccccc3)c[nH]c2=S)cc1
 : -2.9 | -1.3 | x | 10.4 | 8.2 | 3.7
(18) S=c1[nH]cc(-c2ccccc2)n1-c1ccccc1
 : -7.9 | -1.6 | -14.5 | 3.0 | 45.7 | 1.9
(19) CCn1c(-c2ccccc2)c[nH]c1=S
 : -5.6 | -0.3 | -29.8 | 0.5 | 99.0* | -6.3
(20) CC(C)Cn1c(-c2ccc(Br)cc2)c[nH]c1=S
 : -0.8 | -5.3 | x | 5.9 | 96.9* | 9.7

Other results:
Every second line gives: NALP1 yeast inh | MC4R barr agon | Yeast UUG start | MC4R antag cAMP | ALR H2O2 inh | HDAC3 inh
(21) Cc1noc(C)c1NC(=O)N(C)C[C@@H]1Oc2ccc(NC(=O)Nc3cccc4ccccc34)cc2C(=O)N([C@@H](C)CO)C[C@@H]1C
 : x | x | 9.8 | x | x | x
(22) N=C(N)SCc1cn(-c2ccccc2)nc1-c1ccc(Br)cc1
 : -1.1 | 16.6* | x | 1.3 | x | x
(23) C[C@@H]1CN([C@@H](C)CO)C(=O)Cc2cc(NC(=O)Nc3ccc4c(c3)OCO4)ccc2O[C@H]1CN(C)Cc1ccc(Cl)c(Cl)c1
 : x | x | -11.7 | x | x | x
(24) CC1(C)CC(=O)C2=C(C1)OC(N)=C(C#N)C2c1cn(-c2ccccc2)nc1-c1ccc(F)cc1 (stereo not given)
 : 31.8 | -3.9 | x | 22.4 | -1.6 | 13.7
(25) CC1(C)CC(=O)C2=C(C1)C(c1cn(-c3ccccc3)nc1-c1ccccc1)C(C#N)=C(N)O2 (stereo not given)
 : 43.1* | -0.3 | 4.4 | 18.3 | 72.5 | -1.4
(26) CCc1ccccc1N/N=C(/C)c1c(O)cc(C)oc1=O
 : 4.2 | -1.1 | -16.9 | 10.6 | 98.1* | 9.4
(27) COCC(=O)Nc1ccc2c(c1)OC[C@H](C)N(CCC(F)(F)F)C[C@H](C)[C@@H](OC)CN(C)C2=O
 : x | x | -2.9 | x | x | x
(28) CCOC(=O)N1CCC(Nc2cccc(SC)c2)CC1
 : -4.5 | 0.0 | -15.6 | 10.6 | 97.5* | -2.8
(29) CN1[C@@H]2Cn3c(ccc(-c4ccccc4)c3=O)[C@H]1[C@@H](C(=O)NCCc1ccccc1)[C@@H]2CO
 : x | x | -5.4 | x | x | x
(30) Cc1[nH]c2ccccc2c1N=Nc1c(C)n(C)n(-c2ccccc2)c1=O
 : 3.5 | -4.8 | x | -1.9 | 99.1* | 3.1
(31) Cc1c(N=Nc2ccc(O)cc2)c(=O)n(-c2ccccc2)n1C
 : -15.3 | -2.6 | x | -19.3 | 1.2 | -0.6
(32) Cc1cc(N)ccc1N=Nc1c(C)n(C)n(-c2ccccc2)c1=O
 : 8.5 | 2.5 | -4.3 | -24.9 | 99.4* | 1.0
(33) Cc1ccc(S(=O)(=O)N[C@@H]2CCCN(Cc3ccc(OCCO)cc3)C2)cc1
 : x | x | -14.1 | x | x | x
(34) CCCN(C)C[C@H]1OCCCC[C@@H](C)Oc2ccc(NS(=O)(=O)c3ccccc3)cc2C(=O)N([C@@H](C)CO)C[C@H]1C
 : x | x | 29.5 | x | x | x
(35) COCCNC(=S)Nc1ccc2nc(N3CCCC3)cc(C)c2c1
 : 33.9 | -0.6 | -6.5 | 0.7 | 72.5 | 2.0
(36) Cc1cc(N2CCCC2)nc2ccc(NC(=S)NC(C)C)cc12
 : 13.0 | 2.4 | x | 4.4 | 43.3 | -11.1
(37) Cc1cc(N2CCOCC2)nc2ccc(NC(=S)NCc3ccc4c(c3)OCO4)cc12
 : -14.0 | 0.9 | x | 7.0 | 98.8* | x
(38) Cc1cc(N2CCOCC2)nc2ccc(NC(=S)NC(C)C)cc12
 : 15.1 | -0.3 | -11.0 | 0.6 | 92.7* | -16.9
(39) COCCNC(=S)Nc1ccc2nc(N3CCOCC3)cc(C)c2c1
 : -2.4 | 0.5 | -5.8 | 15.0 | 84.9* | -8.0
(40) C[C@@H]1CN([C@@H](C)CO)C(=O)Cc2cc(NS(=O)(=O)c3cn(C)cn3)ccc2O[C@@H]1CN(C)C(=O)Nc1cccc2ccccc12
 : x | x | 1.0 | x | x | x

Following part
Every second line gives: NALP1 yeast inh | MC4R barr agon | Yeast UUG start | MC4R antag cAMP | ALR H2O2 inh | HDAC3 inh
(41) CC(C)NC(=O)/C(C#N)=C/c1ccc(N(C)C)o1
 : -18.4 | -2.2 | x | -38.1 | 98.4* | 11.5
(42) N#C/C(=C\c1ccc(N2CCOCC2)o1)C(=O)NCC1CCCO1 (stereo not given)
 : 2.1 | 0.1 | x | -15.9 | 86.3* | 12.5
(43) N#C/C(=C\c1ccc(N2CCOCC2)o1)C(=O)NCCc1ccccc1
 : -3.2 | 1.1 | x | 1.1 | 88.7* | 15.5
(44) N#C/C(=C/c1ccc(N2CCOCC2)o1)C(=O)Nc1ccccc1
 : 3.1 | 1.6 | 1.7 | -10.6 | x | x
(45) COCCNC(=O)/C(C#N)=C/c1ccc(N2CCOCC2)o1
 : 14.1 | -1.7 | x | -29.6 | x | 9.2
(46) N#C/C(=C\c1ccc(N2CCOCC2)o1)C(=O)NC1CCCCC1
 : 9.8 | -1.2 | 12.0 | -17.1 | 79.2* | 5.3
(47) COc1ccc(S(=O)(=O)Nc2ccc3c(c2)C(=O)N([C@@H](C)CO)C[C@H](C)[C@@H](CN(C)C(=O)C2CCCCC2)OCCCC[C@@H](C)O3)cc1
 : x | x | 3.2 | x | x | x
(48) CCNC(=O)C[C@H]1CC[C@H]2[C@@H](COc3ccc(NC(=O)Nc4ccc(F)cc4)cc3C(=O)N2C)O1
 : x | x | -1.7 | x | x | x
(49) COC(=O)CNc1nc(-c2ccccc2F)nc2ccccc12
 : 19.1 | -1.0 | -10.5 | -5.3 | 10.7 | 2.2
(50) CC(=O)Nc1cccc(Nc2nc(-c3ccccc3F)nc3ccccc23)c1
 : 8.0 | -0.7 | -5.0 | 7.7 | 98.2* | 7.4

Assay outcomes (PubChem)
